Results on 3 molecules are retold here after ChEMBL document CHEMBL1687944, “Purification and inhibition studies with anions and sulfonamides of an α-carbonic anhydrase from the Antarctic seal Leptonychotes weddellii” (Bioorg Med Chem, 2011).

Protein sequences, listed by entry. Tags and fused reporters are not part of them. Lines headed by an entry give the natural chain unless they say otherwise; changes in a name come on top.
UniProt P00915: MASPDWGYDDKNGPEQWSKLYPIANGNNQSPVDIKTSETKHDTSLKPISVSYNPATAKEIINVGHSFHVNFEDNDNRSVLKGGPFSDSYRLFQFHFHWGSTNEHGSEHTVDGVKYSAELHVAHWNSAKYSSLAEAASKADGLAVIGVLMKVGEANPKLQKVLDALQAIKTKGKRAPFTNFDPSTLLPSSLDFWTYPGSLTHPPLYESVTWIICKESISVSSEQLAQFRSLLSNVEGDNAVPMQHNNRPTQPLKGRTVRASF

SMILES strings stand for the structures.

This experiment concerns the target Carbonic anhydrase 1 (Homo sapiens, UniProt P00915).

The term Ki denotes the dissociation constant of the complex between target and ligand, obtained from inhibition or displacement. High values mean weaker binding, low ones tighter binding.

As to `[Cl-].[Na+]` [SODIUM CHLORIDE], the affinity corresponds to a Ki of 6 mM.

`[Br-].[Na+]` [SODIUM BROMIDE]: the inhibitory constant (Ki) was 4 mM. `[F-].[Na+]` [SODIUM FLUORIDE] registered an inhibition constant Ki of more than 300 mM.
